# Laboratory results taken from patent US7598261B2, “Spirocyclic heterocyclic derivatives and methods of their use” (Adolor Corporation, priority 2005, dated 2009).
# By UniProt entry, the sequences of proteins in these tests, tags left out.
# UniProt P41145, whole entry: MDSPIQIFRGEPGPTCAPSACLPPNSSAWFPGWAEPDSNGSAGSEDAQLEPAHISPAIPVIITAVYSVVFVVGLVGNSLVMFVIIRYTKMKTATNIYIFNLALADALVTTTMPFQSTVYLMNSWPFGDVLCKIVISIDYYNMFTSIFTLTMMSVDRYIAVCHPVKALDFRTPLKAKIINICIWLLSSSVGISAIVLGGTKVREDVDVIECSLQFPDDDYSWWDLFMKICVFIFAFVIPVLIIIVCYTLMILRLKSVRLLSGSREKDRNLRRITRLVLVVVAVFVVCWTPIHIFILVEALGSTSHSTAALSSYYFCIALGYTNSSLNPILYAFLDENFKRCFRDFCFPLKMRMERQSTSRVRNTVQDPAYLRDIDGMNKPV
# UniProt P35372, whole entry: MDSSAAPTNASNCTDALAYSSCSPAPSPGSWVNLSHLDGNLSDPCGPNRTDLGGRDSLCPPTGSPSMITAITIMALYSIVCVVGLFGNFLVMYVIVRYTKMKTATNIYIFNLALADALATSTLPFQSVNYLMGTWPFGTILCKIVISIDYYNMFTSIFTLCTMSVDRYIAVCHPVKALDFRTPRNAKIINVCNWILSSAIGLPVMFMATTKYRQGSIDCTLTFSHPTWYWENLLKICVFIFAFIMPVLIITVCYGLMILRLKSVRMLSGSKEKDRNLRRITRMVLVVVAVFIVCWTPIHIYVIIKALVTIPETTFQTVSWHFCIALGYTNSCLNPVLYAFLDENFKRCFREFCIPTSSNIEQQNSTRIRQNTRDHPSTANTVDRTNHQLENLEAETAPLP
# pEC50, pKi: −log10 of the molar value.
# Key:
# [1] = biological target: cloned human κ opioid receptor (Homo sapiens, UniProt P41145); assay: [3H]diprenorphine receptor binding, κ opioid receptor; conditions: read-out: affinity (Ki value), kappa opioid receptor, inhibition of [3H]diprenorphine binding, tested form: dihydrochloride, 1.75 hydrate
# Description: (§1) The potencies of the compounds listed in Table 2 were determined by testing the ability of a range of concentrations of each compound to inhibit the binding of the non-selective opioid antagonist, [^3H]diprenorphine, to the cloned human μ, κ, and δ opioid receptors, expressed in separate cell lines. IC50 values were obtained by nonlinear analysis of the data using GraphPad Prism version 3.00 for Windows (GraphPad Software, San Diego). Ki values were obtained by Cheng-Prusoff corrections of IC50 values.
# (§2) The receptor binding method (DeHaven and DeHaven-Hudkins, 1998) was a modification of the method of Raynor et al. (1994). […] The filters were rinsed 4 times with 1 mL of cold 50 mM Tris HCl, pH 7.8 and radioactivity remaining on the filters determined by scintillation spectroscopy. Nonspecific binding was determined by the minimum values of the titration curves and was confirmed by separate assay wells containing 10 μM naloxone. Ki values were determined by Cheng-Prusoff corrections of IC50 values derived from nonlinear regression fits of 12 point titration curves using GraphPad Prism® version 3.00 for Windows (GraphPad Software, San Diego, Calif.).
# (§3) To determine the equilibrium dissociation constant for the inhibitors (Ki), radioligand bound (cpm) in the presence of various concentrations of test compounds was measured. […]
# [2] = biological target: T1, cloned human δ opioid receptor (Homo sapiens, UniProt P41143); assay: [3H]diprenorphine receptor binding, δ opioid receptor; conditions: read-out: affinity (Ki value), delta opioid receptor, inhibition of [3H]diprenorphine binding, tested form: dihydrochloride, 1.75 hydrate
# Description: as §1, §2, §3
# [3] = biological target: cloned human μ opioid receptor (Homo sapiens, UniProt P35372); assay: [3H]diprenorphine receptor binding, μ opioid receptor; conditions: read-out: affinity (Ki value), mu opioid receptor, inhibition of [3H]diprenorphine binding, tested form: dihydrochloride, 1.75 hydrate
# Description: as §1, §2, §3
# [4] = biological target: T1, cloned human δ opioid receptor; assay: Receptor-mediated [35S]GTPγS binding (agonist potency); format: biochemical; conditions: read-out: in vitro δ agonist activity (EC50); stimulation of [35S]GTPγS binding, membranes with cloned human δ opioid receptor; tested form: dihydrochloride, 1.75 hydrate
# Description: The potency and efficacy of compounds at each of the receptors are assessed by modifications of the methods of Selley et al., 1997 and Traynor and Nahorski, 1995 using receptor-mediated [^35S]GTPγS binding in the same membrane preparations used to measure receptor binding. Assays are carried out in 96-well FlashPlates® (Perkin Elmer Life Sciences, Inc, Boston, Mass.). […] After incubation at room temperature for one hour, the plates are sealed, centrifuged at 800×g in a swinging bucket rotor for 5 min and bound radioactivity determined with a TopCount microplate scintillation counter (Packard Instrument Co., Meriden, Conn.).
# EC50 values for agonists are determined from nonlinear regression fits of 8- or 12-point titration curves to the 4-parameter equation for a sigmoidal dose-response with a slope factor of 1.0 using GraphPad Prism® version 3.00 for Windows (GraphPad Software, San Diego, Calif.).
# The potencies of the compounds were determined by testing the ability of a range of concentrations of each compound to inhibit the binding of the non-selective opioid antagonist, [^3H]diprenorphine, to the cloned human μ, κ, and δ opioid receptors, expressed in separate cell lines. […] The potencies of the agonists were assessed by their abilities to stimulate [^35S]GTPγS binding to membranes containing the cloned human δ opioid receptors.
# FCA-induced hyperalgesia = assay: Freunds Complete Adjuvant (FCA)-induced hyperalgesia, paw pressure threshold; conditions: rat, oral administration, 3 mg/kg dose, PPT assessed 60 minutes after drug treatment, 24 h after intraplantar FCA; tested form: dihydrochloride, 1.75 hydrate
# Description: Freunds Complete Adjuvant (FCA)-Induced Hyperalgesia
# Rats were injected intraplantar with FCA and 24 h later treated with tested compounds administered orally. Paw Pressure Thresholds (PPT) was assessed 60 minutes after drug treatment. In this assay, 43D produced siginificant anti-hyperalgesic activity (193±47% antihyperalgesia) after oral administration (3 mg/kg dose).
smiles,measurement,setting,value
CCN(CC)C(=O)c1ccc(C2=CC3(CCCNCC3)Oc3cccc(O)c32)cn1 (centres unmarked),pKi,[1],< 6.00
same,pKi,[2],8.60
same,pKi,[3],< 7.00
same,pEC50,[4],7.20
same,% antihyperalgesia,FCA-induced hyperalgesia,193±47%
